{"sequences": {"note": "Chains of the proteins cited; added tags and fusions are not shown.", "UniProt Q92843, whole entry": "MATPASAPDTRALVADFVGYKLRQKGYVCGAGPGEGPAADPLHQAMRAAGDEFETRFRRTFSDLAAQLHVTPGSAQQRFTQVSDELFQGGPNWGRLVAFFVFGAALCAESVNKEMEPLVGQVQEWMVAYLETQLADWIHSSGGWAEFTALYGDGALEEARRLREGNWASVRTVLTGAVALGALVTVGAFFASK"}, "source": "PubChem BioAssay AID952", "about": "(NMMLSC, 2007)", "note": "Only a part is listed here, and it is no random draw. Some of these compounds have results that are not shown, active ones among them. The source made the active and inactive calls. No stated cut-off is given here; in the data, active means inhibition above about 40%.", "data": [{"molecular_target": "Bcl-2-like protein 2 (Homo sapiens) (UniProt Q92843)", "assay": "inhibitors of Bim binding to Bcl-W, primary screen, biochemical, multiplexed, bead-based flow cytometry (AID 952);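 further: 0% = bound tracer without compound and 100% = peptide blocker; higher means less fluorescent Bim peptide bound to Bcl-W beads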", "details": "Bim peptide-Bcl-W binding, at 10 µM, active compounds read high", "values": [{"smiles": "CCN1CCCC(OC(=O)C2(O)c3ccccc3C=Cc3ccccc32)C1", "note": "(centres undefined)", "inhibition": "inactive: -5%"}, {"smiles": "C=CCN1CCN(CCOC(=O)C(O)(c2ccccc2)c2ccccc2)CC1", "inhibition": "inactive: 0%"}, {"smiles": "Cc1ccccc1C(=O)NCC1(N2CCCCC2)CCCCC1", "inhibition": "inactive: -2%"}, {"smiles": "CN(C)C1CCCC1OC(=O)C(O)(c1ccccc1)c1ccccc1", "note": "(centres undefined)", "inhibition": "inactive: -3%"}, {"smiles": "CC(C)N1C(=O)CC2(CCN(CCOC(=O)C(O)(c3ccccc3)c3ccccc3)CC2)C1=O", "inhibition": "inactive: 1%"}, {"smiles": "O=C(NCC1(N2CCCCC2)CCCCC1)c1cc([N+](=O)[O-])ccc1Cl", "inhibition": "inactive: 13%"}, {"smiles": "CN(C)c1cccc(C(=O)NCC2(N(C)C)CCCCC2)c1", "inhibition": "inactive: -3%"}, {"smiles": "O=C(OC1CN2CCC1CC2)C(CO)(c1ccccc1)c1ccccc1", "note": "(centres undefined)", "inhibition": "inactive: 0%"}, {"smiles": "COc1cccc(C(=O)NCC2(N3CCCCC3)CCCCC2)c1", "inhibition": "inactive: 0%"}]}]}
